The record followed here is PubChem BioAssay AID652105 (National Center for Advancing Translational Sciences (NCATS), 2013).

The chains behind the UniProt entries cited, without tags or fusion partners. Where a name states a change or a piece, a line headed by the entry shows the natural chain unless it says otherwise.
UniProt P48426: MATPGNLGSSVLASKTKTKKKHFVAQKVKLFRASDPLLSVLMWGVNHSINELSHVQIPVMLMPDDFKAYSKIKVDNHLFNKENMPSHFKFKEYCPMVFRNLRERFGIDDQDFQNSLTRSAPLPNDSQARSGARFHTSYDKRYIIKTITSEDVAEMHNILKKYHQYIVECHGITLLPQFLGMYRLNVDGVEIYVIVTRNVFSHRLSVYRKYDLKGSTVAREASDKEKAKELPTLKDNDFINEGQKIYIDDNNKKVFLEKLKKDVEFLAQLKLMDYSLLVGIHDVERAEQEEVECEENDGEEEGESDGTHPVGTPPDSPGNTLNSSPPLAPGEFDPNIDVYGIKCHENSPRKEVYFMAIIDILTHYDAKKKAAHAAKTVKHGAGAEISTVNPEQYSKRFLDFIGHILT

The entries are a selection whose mix differs from that of the whole data set. The source made the active and inactive calls. How the source made its calls: active means max response of -50% or lower; inconclusive means between -30% and -50%; inactive means -30% or higher.
On the % scale 0 is the no-effect control and ±100 the full control effect.

For the test, the target named is Phosphatidylinositol 5-phosphate 4-kinase type-2 alpha (Homo sapiens) (UniProt P48426). As to the kind of experiment: qHTS for Inhibitors of phosphatidylinositol 5-phosphate 4-kinase (PI5P4K). Further: value at the top dose of about 77 µM. Particulars: PI5P4Kalpha enzyme, ADP-Glo luminescence, 60 min; active compounds read low. From the text:
In addition to finding PI5P, we discovered the type II phosphatidylinositol 5-phosphate 4-kinase (PI5P4K) family (alpha, beta, gamma isoforms) that catalyze the conversion of PI5P to PI(4,5)P2. Alternatively, PI(4,5)P2 can also be synthesized through phosphatidylinositol-4-phosphate (PI4P) by the type I phosphatidylinositol 4-phosphate 5-kinases (PI4P5K). These PI5P4K enzymes therefore represent one way by which cells can regulate endogenous PI5P levels and play important roles in insulin signaling and in stress responses.
This proposal aims to identify and optimize specific modulators of human PI5P4K, phosphatidylinositol-5-phosphate 4-kinase (Type II PIPK), a family of kinases that regulate AKT signaling and tumor cell growth. In this project we aim to identify inhibitors of human PI5P4K using a quantitative high-throughput screening approach against the MLSMR containing ~400,000 small molecules.
NIH Chemical Genomics Center [NCGC]
NIH Molecular Libraries Probe Centers Network [MLPCN]
Assay Submitter (PI): Atsuo Sasaki, Beth Israel Deaconess Medical Center
2 microL of PI5P4Kalpha/substrate buffer (columns 1-2, 5-48) are dispensed into Greiner white solid bottom 1536-well assay plates; column 3 receives only PI5P4Kalpha buffer as 0x substrate controls; column 4 receives only substrate buffer as 0x PI5P4Kalpha controls. Final assay buffer consists of 0.038 M HEPES pH 7.4, 0.28 mM EGTA, 0.1% CHAPS, and 5% DMSO (final concentration). Compounds are then transferred via Kalypsys pin tool equipped with 1536-pin array (10 nL slotted pins, V&P Scientific, San Diego, CA). Following addition of compound, 1 microL of ATP (5 microM final concentration, all columns) is added to initiate the reaction. ATP is diluted in an assay buffer consisting of 0.02 M HEPES pH 7.4, 60 mM MgCl2, 15 microM ATP, and 0.1% CHAPS. The plates are then incubated at room temperature for 60 minutes. ADP-Glo reagent 1 is added (2 microL) and plates incubated for 45 minutes, before ADP-Glo reagent 2 (4 microL) is added and plates incubated for 30 minutes. They are then transferred to a ViewLux high-throughput CCD imager (PerkinElmer) wherein single end-point measurements of luminescence are acquired using a clear filter.
Background: Quantitative high-throughput screening tests each substance at several concentrations.
Turning to `CC(=O)NC(SC(=S)N(CC(C)C)CC(C)C)C(Cl)(Cl)Cl` (stereo not drawn), the max response was inactive: 3.48%. As for `Cc1ccc(OP(=O)(Nc2ccccn2)Oc2ccc(C)cc2)cc1`, the figure is inactive: 13.9%; as for `O=P1(N(CCCl)CCCl)OCCC2CCCCN21` (stereo not drawn), inactive: 2.41%; as for `c1ccc(-c2nn[nH]n2)c(-c2nn[nH]n2)c1`, inactive: 4.35%. Then `Cc1ccc(NP(=O)(Oc2cccc(C)c2)Oc2cccc(C)c2)nc1`, with inactive: 4.8%. For the compound `O=C(NC1CCS(=O)(=O)C1)NP(=S)(Oc1ccccc1)Oc1ccccc1` (stereo not drawn), the max response is inactive: 13.9%.

As to `CCNC(=S)/N=C(\N)N[N+](=O)[O-]`, the max response is inactive: 0.979%. Consider `Nc1ccc([As](=O)(O)c2ccc([N+](=O)[O-])cc2)cc1`, for which the max response is inactive: 1.91%.

`C(Cc1nn[nH]n1)Cc1nn[nH]n1`: the max response was inactive: -15.6%. Then `O=[As](O)(c1ccccc1)c1ccc(O)cc1`, with inactive: 7.91%. Then `CC(=O)NC(SC(=S)N(C)C)C(Cl)(Cl)Cl` (stereo not drawn), with inactive: -1.33%.

Regarding `O=[N+]([O-])c1ncn(CCn2cnc([N+](=O)[O-])n2)n1`, the max response was inactive: 2.51%. Then `O=[N+]([O-])c1ccc(O)c(/C=N/Nc2ccc([N+](=O)[O-])cc2[N+](=O)[O-])c1`, with inactive: -5.9%; and `O=P(Nc1nc2ccccc2s1)(c1ccccc1)c1ccccc1`, with inactive: 0.32%; and `C[C@H]1OP(=O)(Oc2ccccc2)[C@H](O)[C@H](O)[C@H]1N=[N+]=[N-]` (stereo partly drawn), with inactive: -0.338%.

As for `CN(C)C1(CNC(=O)c2ccc(Cl)c(S(N)(=O)=O)c2)CCCCC1`, the max response was inactive: -4.4%. Then `O=P(Nc1ccccn1)(c1ccc(Br)cc1)c1ccc(Br)cc1`, with inactive: -2.95%.

`Nc1ccc(CCCCOc2ccccc2)cc1`: the max response is inactive: -7.01%.

Turning to `COc1ccc(N)c([N+](=O)[O-])c1[N+](=O)[O-]`, the max response was inactive: -22%. As for `c1nnnn1CCn1cnnn1`, the figure is inactive: 1.39%; as for `O=P(Nc1nccs1)(c1ccccc1)c1ccccc1`, inactive: 5.4%. In the case of `CC(C)C(=O)NC(Sc1ccccc1)C(Cl)(Cl)Cl` (stereo not drawn), the max response was inactive: 1.32%. Then `CC1CCN(C(=O)Oc2c(Cl)cc(Cl)c3cccnc23)CC1`, with inactive: 1.39%; and `CC(C)=N/N=C(\N)N[N+](=O)[O-]`, with inactive: 4.5%; and `CC(C)c1nc(Nc2ccccc2)n(P(=O)(N(C)C)N(C)C)n1`, with inactive: 3.21%. As for `CN(C)C(=O)OCCc1n(C)cc[n+]1C`, the figure is inactive: -4.47%; as for `CCN(/C(=N/P(=O)(N1CCOCC1)N1CCOCC1)N1CCOCC1)c1ccc(OC)cc1`, inactive: 0.256%. As for `Nc1ccc([As](=O)(O)c2ccc(N)cc2)cc1`, the figure is inactive: -0.672%.
